From US7001983B1, “Antipathogenic synthetic peptides and compositions comprising them” (priority 1997, dated 2006)

Legend:
[1] = system: Bacillus subtilis ATCC 6051; format: cell-based; conditions: 100% inhibition of growth after 18–20 h
[2] = system: Escherichia coli D21; conditions: 100% inhibition of growth after 18–20 h
[3] = system: Bacillus megaterium Bm11; conditions: 100% inhibition of growth after 18–20 h
[4] = system: Acinetobacter calcoaceticus Ac11; format: cell-based; conditions: 100% inhibition of growth after 18–20 h
[5] = system: Salmonella typhimurium LT2; assay: Antibacterial activity (MIC), growth inhibition in LB medium; format: cell-based; conditions: 100% inhibition of growth after 18–20 h
From the text: (viii) Antibacterial activity of the peptides.

[6] = system: Pseudomonas aeruginosa ATCC 27853; conditions: 100% inhibition of growth after 18–20 h
[7] = system: Candida albicans (IP886-65); assay: Antifungal activity (MIC); format: cell-based; conditions: 100% inhibition of growth after 48 h at 30° C.
From the text: (§1) The fungi used were: Candida albicans (IP886-65) and Cryptococcus neoformans (IP960-67).

[8] = system: Cryptococcus neoformans (IP960-67); assay: Antifungal activity (MIC); format: cell-based; conditions: 100% inhibition of growth after 48 h at 30° C.
From the text: as §1

[9] = system: human red blood cells (hRBC); assay: Hemolysis of human red blood cells; conditions: up to 50 μM
[10] = system: Micrococcus Iuteus ATCC 9341; assay: Antibacterial activity (MIC), growth inhibition in LB medium; conditions: 100% inhibition of growth after 18–20 h

Row | SMILES | Minimal Inhibitory Concentration B. subtilis (ATCC 6051) [1] | Minimal Inhibitory Concentration E. coli (D21) [2] [µM] | Minimal Inhibitory Concentration B. megaterium (Bm11) [3] [µM] | Minimal Inhibitory Concentration A. calcoaceticus (Ac11) [4] [µM] | Minimal Inhibitory Concentration S. typhimurium (LT2) [5] [µM] | Minimal Inhibitory Concentration P. aeruginosa (ATCC 27853) [6] [µM] | Minimal Inhibitory Concentration Candida albicans (IP886-65) [7] [µM] | Minimal Inhibitory Concentration Cryptococcus neoformans (IP960-67) [8] [µM] | hemolytic activity up to the maximum concentration tested [9] | Minimal Inhibitory Concentration M. luteus (ATCC 9341) [10] [µM]
1 | CC[C@H](C)[C@H](NC(=O)CN)C(=O)NCC(=O)N[C@@H](C)C(=O)N[C@H](C(=O)N[C@@H](CC(C)C)C(=O)N[C@@H](CCCCN)C(=O)N[C@H](C(=O)N[C@@H](CC(C)C)C(=O)N[C@H](C(=O)N[C@H](C(=O)NCC(=O)N[C@@H](CC(C)C)C(=O)N1CCC[C@H]1C(=O)N[C@@H](C)C(=O)N[C@@H](CC(C)C)C(=O)N[C@H](C(=O)N[C@@H](CO)C(=O)N[C@@H](Cc1c[nH]c2ccccc12)C(=O)N[C@H](C(=O)N[C@@H](CCCCN)C(=O)N[C@@H](CCCNC(=N)N)C(=O)N[C@@H](CCCCN)C(=O)N[C@@H](CCCNC(=N)N)C(=O)N[C@@H](CCC(N)=O)C(=O)N[C@@H](CCC(N)=O)C(N)=O)[C@@H](C)CC)[C@@H](C)CC)[C@@H](C)O)[C@@H](C)O)C(C)C)C(C)C [Melittin, reference compound] | 0.6 µM and 0.4 µM | 5 | 0.3 |  |  |  |  |  |  | 
2 | CC[C@H](C)[C@H](NC(=O)[C@H](CCCCN)NC(=O)[C@H]1CCCN1C(=O)[C@@H](NC(=O)[C@H](CC(C)C)NC(=O)[C@H](C)NC(=O)[C@H](Cc1ccccc1)NC(=O)[C@H](Cc1ccccc1)NC(=O)CN)[C@@H](C)CC)C(=O)N[C@H](C(=O)N[C@@H](CO)C(=O)N[C@@H](CO)C(=O)N1CCC[C@H]1C(=O)N[C@@H](CC(C)C)C(=O)N[C@@H](Cc1ccccc1)C(=O)N[C@@H](CCCCN)C(=O)N[C@H](C(=O)N[C@H](CC(C)C)C(=O)N[C@H](CC(C)C)C(=O)N[C@@H](CO)C(=O)N[C@@H](C)C(=O)N[C@H](C(=O)O)C(C)C)[C@@H](C)O)[C@@H](C)CC [Peptide 3, [D]P^7L^18L^19[1-22]-par] |  | 130 | 30 | >130 | >130 | >130 |  |  |  | 
3 | CC[C@H](C)[C@H](NC(=O)[C@H](CCCCN)NC(=O)[C@H]1CCCN1C(=O)[C@@H](NC(=O)[C@H](CC(C)C)NC(=O)[C@H](C)NC(=O)[C@H](Cc1ccccc1)NC(=O)[C@H](Cc1ccccc1)NC(=O)CN)[C@@H](C)CC)C(=O)N[C@H](C(=O)N[C@@H](CO)C(=O)N[C@@H](CO)C(=O)N1CCC[C@H]1C(=O)N[C@@H](CC(C)C)C(=O)N[C@@H](Cc1ccccc1)C(=O)N[C@@H](CCCCN)C(=O)N[C@H](C(=O)N[C@@H](CC(C)C)C(=O)N[C@@H](CC(C)C)C(=O)N[C@@H](CO)C(=O)N[C@@H](C)C(=O)N[C@H](C(=O)NCC(=O)N[C@@H](CO)C(=O)N[C@@H](C)C(=O)N[C@@H](CC(C)C)C(=O)N[C@@H](CO)C(=O)N[C@@H](CO)C(=O)N[C@@H](CO)C(=O)NCC(=O)NCC(=O)N[C@@H](CCC(N)=O)C(=O)N[C@@H](CCC(=O)O)C(=O)O)C(C)C)[C@@H](C)O)[C@@H](C)CC [Peptide 13, [D]P^7-par] |  | 30 | 3.5 | 15 | >100 | >100 |  |  |  | 
4 | CC[C@H](C)[C@H](NC(=O)[C@H](CCCCN)NC(=O)[C@@H]1CCCN1C(=O)[C@@H](NC(=O)[C@H](CC(C)C)NC(=O)[C@H](C)NC(=O)[C@H](Cc1ccccc1)NC(=O)[C@H](Cc1ccccc1)NC(=O)CN)[C@@H](C)CC)C(=O)N[C@H](C(=O)N[C@@H](CO)C(=O)N[C@@H](CO)C(=O)N1CCC[C@H]1C(=O)N[C@@H](CC(C)C)C(=O)N[C@@H](Cc1ccccc1)C(=O)N[C@@H](CCCCN)C(=O)N[C@H](C(=O)N[C@H](CC(C)C)C(=O)N[C@H](CC(C)C)C(=O)N[C@@H](CO)C(=O)N[C@@H](C)C(=O)N[C@H](C(=O)NCC(=O)N[C@@H](CO)C(=O)N[C@@H](C)C(=O)N[C@@H](CC(C)C)C(=O)N[C@@H](CO)C(=O)N[C@@H](CO)C(=O)N[C@@H](CO)C(=O)NCC(=O)NCC(=O)N[C@@H](CCC(N)=O)C(=O)N[C@@H](CCC(=O)O)C(=O)O)C(C)C)[C@@H](C)O)[C@@H](C)CC [Peptide 15, [D]L^18L^19-par] |  | 15 | 1.7 | 3.5 | 60 | 60 |  |  |  | 
5 | CC[C@H](C)[C@H](NC(=O)[C@H](CCCCN)NC(=O)[C@H]1CCCN1C(=O)[C@@H](NC(=O)[C@H](CC(C)C)NC(=O)[C@H](C)NC(=O)[C@H](Cc1ccccc1)NC(=O)[C@H](Cc1ccccc1)NC(=O)CN)[C@@H](C)CC)C(=O)N[C@H](C(=O)N[C@@H](CO)C(=O)N[C@@H](CO)C(=O)N1CCC[C@H]1C(=O)N[C@@H](CC(C)C)C(=O)N[C@@H](Cc1ccccc1)C(=O)N[C@@H](CCCCN)C(=O)N[C@H](C(=O)N[C@H](CC(C)C)C(=O)N[C@H](CC(C)C)C(=O)N[C@@H](CO)C(=O)N[C@@H](C)C(=O)N[C@H](C(=O)NCC(=O)N[C@@H](CO)C(=O)N[C@@H](C)C(=O)N[C@@H](CC(C)C)C(=O)N[C@@H](CO)C(=O)N[C@@H](CO)C(=O)N[C@@H](CO)C(=O)NCC(=O)NCC(=O)N[C@@H](CCC(N)=O)C(=O)N[C@@H](CCC(=O)O)C(=O)O)C(C)C)[C@@H](C)O)[C@@H](C)CC [Peptide 16, [D]P^7L^18L^19-par] |  | 100 | 50 | 100 | >100 | >100 | 120 | 150 |  | 
6 | CC[C@@H](C)[C@@H](NC(=O)[C@H](CC(C)C)NC(=O)[C@H](C)NC(=O)[C@@H]1CCCN1C(=O)[C@H](CC(C)C)NC(=O)CNC(=O)[C@@H](NC(=O)[C@@H](NC(=O)[C@H](CC(C)C)NC(=O)[C@H](NC(=O)[C@H](CCCCN)NC(=O)[C@H](CC(C)C)NC(=O)[C@H](NC(=O)[C@H](C)NC(=O)CNC(=O)[C@@H](NC(=O)CN)[C@@H](C)CC)C(C)C)C(C)C)[C@@H](C)O)[C@@H](C)O)C(=O)N[C@@H](CO)C(=O)N[C@@H](Cc1c[nH]c2ccccc12)C(=O)N[C@H](C(=O)N[C@H](CCCCN)C(=O)N[C@@H](CCCNC(=N)N)C(=O)N[C@@H](CCCCN)C(=O)N[C@@H](CCCNC(=N)N)C(=O)N[C@@H](CCC(N)=O)C(=O)N[C@@H](CCC(N)=O)C(N)=O)[C@@H](C)CC [Peptide 18, [D]-V^5V^8I^17K^21-mel] | 3.5 µM | 12 | 0.8 | 12 |  |  |  |  | practically devoid of hemolytic activity | 25

“And” between values parts separate entries of the source, which are not always exact repeats. Identical values can stand only once.
